Target: Urokinase-type plasminogen activator (Homo sapiens, UniProt P00749)
Assay: Inhibition of human uPA using pyroGlu-Gly-Arg-p-NA.HCl as substrate preincubated for 15 mins prior substrate addition measured for 10 mins by spectrophotometry

IC50: 1200 nM
SMILES: [H]/N=C(\N)c1ccc2cc(C(=O)Nc3ccc(CN)cc3)ccc2c1
